Data published in patent US11447533B2, “Antimicrobial and anticancer peptides and conjugates and compositions, methods, articles and kits relating thereto” (George Mason Research Foundation, Inc., priority 2018, dated 2022).

Tests used:
[1] = tested on: E. coli ATCC 25922; experiment: Antimicrobial efficacy (resazurin virtual colony count); assay type: cell-based, Escherichia coli; conditions: DPBS + 4% (w/v) bovine serum albumin versus DPBS
Method: Antimicrobial Studies. The phosphate buffers used for antimicrobial assays were supplemented with non-nitrogenous energy source, 0.1% (w/v) glucose. To conduct antimicrobial assays, bacterial strains were first suspended in respective buffers. E. coli (ATCC 25922) and B. cereus (ATCC 11778) were grown in MHB II up to OD600 nm˜1 and stored as frozen stock in 20% glycerol at −80° C. Occasionally they were thawed and enumerated by serial dilution and spreading on MHB II agar plates. The concentrations of the frozen stocks of E. coli and B. cereus strains were 1.0-1.1*10^8 CFU/mL with OD600 nm˜0.8. […]
(§1) Antimicrobial assays in different phosphate buffers and serum were conducted by adapting, with necessary modifications a fast high-throughput method based on Virtual Colony Count technique and later modified by incorporating the use of resazurin. At first serial dilution of a microbial strain in respective buffer was poured in the wells of 96 well polypropylene microplate and was then added with same volume of 2× MHB II supplemented with 80 μg/mL resazurin and incubated at 35° C. in a Gemini EM Microplate Reader (Molecular Devices) overnight with intermittent shaking. As the microbe grows it reduces non-fluorescent resazurin to fluorescent resorufin and the fluorescent intensity of each well were measured (excitation=570 nm, emission=590 nm) each 5 min for 15 hours. […]

[2] = tested on: Klebsiella pneumoniae (ATCC BAA-1705); experiment: Antimicrobial efficacy against ESKAPE pathogens; assay type: cell-based; conditions: mammalian serum
Method: (§2) Antimicrobial Studies. The phosphate buffers used for antimicrobial assays were supplemented with non-nitrogenous energy source, 0.1% (w/v) glucose. To conduct antimicrobial assays, bacterial strains were first suspended in respective buffers. E. coli (ATCC 25922) and B. cereus (ATCC 11778) were grown in MHB II up to OD600 nm˜1 and stored as frozen stock in 20% glycerol at −80° C. Occasionally they were thawed and enumerated by serial dilution and spreading on MHB II agar plates. The concentrations of the frozen stocks of E. coli and B. cereus strains were 1.0-1.1*10^8 CFU/mL with OD600 nm˜0.8. In case of other bacterial strains, they were grown on the days of experiment up to OD600 nm˜1-1.5 and then adjusted to OD600 nm˜0.8. The growth media of the drug-resistant bacterial strains were supplemented with few of the respective antibiotics against which they are resistant. 200 μL of the 0.8 OD600 nm culture were added to 10 mL of the respective buffer to obtain a suspension which was used to incubate with equal volumes of peptide solution in the same buffer.
as §1, with “hours. The time (t, min) to reach a certain fluorescence (RFU=20000 with respect to the starting fluorescence) was correlated with the initial bacterial concentration (in CFU/mL) in the particular well to obtain a calibration plot of the form: Log([Bacteria],CFU/mL)=b+m*t Equation 4:” for “hours.”
(§3) To obtain antimicrobial efficacy of the peptides, 50 μL of serially diluted peptide in a buffer was incubated with 50 μL microbial suspension in the same buffer for 3 hours in black polypropylene 96 well plate. After incubation the wells were added with 100 μL of 2× MHB II supplemented with 80 μg/mL resazurin and then incubated with continuous fluorescence reading for overnight time period as described earlier. […]
(§4) ATRA1-R3W2-HYD, NA-CATH and PMB were evaluated for their effectiveness in mammalian serum conditions against pathogenic bacteria of both normal and drug-resistant strains. […]

[3] = tested on: Pseudomonas aeruginosa; experiment: Antimicrobial efficacy against ESKAPE pathogens; assay type: cell-based
Method: as §2
as §1, with “hours. The time (t, min) to reach a certain fluorescence (RFU=20000 with respect to the starting fluorescence) was correlated with the initial bacterial concentration (in CFU/mL) in the particular well to obtain a calibration plot of the form: Log([Bacteria],CFU/mL)=b+m*t Equation 4:” for “hours.”
as §3, §4

[4] = tested on: multi-drug resistant (MDR) Acinetobacter baumannii (ATCC BAA-1795); experiment: Antimicrobial efficacy against ESKAPE pathogens; assay type: cell-based; conditions: mammalian serum
Method: as §2
as §1, with “hours. The time (t, min) to reach a certain fluorescence (RFU=20000 with respect to the starting fluorescence) was correlated with the initial bacterial concentration (in CFU/mL) in the particular well to obtain a calibration plot of the form: Log([Bacteria],CFU/mL)=b+m*t Equation 4:” for “hours.”
as §3, §4

[5] = tested on: H-358 lung epithelial cancer cells; experiment: Cytotoxicity (Alamar blue); assay type: cell-based, human; conditions: ~6 hours, 10% fetal bovine serum
Method: FIG. 12 is a graph showing comparison of toxicities against Lung Primary Epithelial cells and Lung Cancerous Epithelial Cells, derived from H358 cell-line. Non-linear regression analysis of six-hour cytotoxicity data was performed to identify the concentration to achieve 50% lethality (LD50) for each toxic peptide. Each peptide was tested in triplicate.
Cytotoxicity. Cells were seeded in complete growth medium (Minimal Essential Medium, MEMα, supplemented with 10% Fetal Bovine Serum) into a culture-treated 96-well plate at a density of 25000 cells per well. After 24 hours, culture media was aspirated and replaced with media containing the selected peptide. No-serum experiments were conducted in Opti-MEM I reduced serum media (ThermoFisher, 31985062) and 10% serum experiments were performed in complete growth medium. In all cases, DBPS was used as a vehicle only control and buffer to serially dilute the peptides. After exposure to the peptides or vehicle-alone for the defined period, Alamar blue dye (resazurin) was added directly to the media and allowed to incubate for two hours. Following incubation, A570/A600 measurements were made to calculate reduction of resazurin dye to resorufin. A ratio of reduction in treated versus untreated cells was calculated in order to determine overall cell viability. The human cells were always maintained in a 37° C. incubator under 5% CO2. […]

CC[C@H](C)[C@H](NC(=O)[C@@H](NC(=O)[C@H](CCCCN)NC(=O)[C@@H]1CCCN1C(=O)[C@H](CCCCN)NC(=O)[C@H](CCCCN)NC(=O)[C@H](Cc1ccccc1)NC(=O)[C@H](Cc1ccccc1)NC(=O)[C@H](CCCCN)NC(=O)[C@H](CCCCN)NC(=O)[C@H](C)NC(=O)[C@H](CCCNC(=N)N)NC(=O)[C@H](CCCCN)NC(=O)[C@H](CCCCN)NC(=O)[C@@H](NC(=O)[C@H](CO)NC(=O)[C@H](CC(N)=O)NC(=O)[C@H](CCCCN)NC(=O)[C@H](CC(C)C)NC(=O)[C@H](CCCCN)NC(=O)[C@H](CCCCN)NC(=O)[C@H](Cc1ccccc1)NC(=O)[C@H](Cc1ccccc1)NC(=O)[C@H](CCCCN)NC(=O)[C@H](CCCCN)NC(=O)[C@H](Cc1ccccc1)NC(=O)[C@H](CCCNC(=N)N)NC(=O)[C@@H](N)CCCCN)C(C)C)C(C)C)C(=O)NCC(=O)N[C@H](C(=O)N[C@H](C(=O)N[C@@H](Cc1ccccc1)C(=O)N1CCC[C@H]1C(=O)N[C@@H](Cc1ccccc1)C(=O)O)[C@@H](C)O)C(C)C [NA-CATH, reference compound] was tested. Which “increase of EC50 in presence of albumin relative to EC50 in DPBS” value [1] did it give?
Its value is “did not demonstrate significant changes in EC50 values”.

What about the “antimicrobial effectiveness, in words” value [2] of the same compound?
The value was “effective in mammalian serum”.

What about the “antimicrobial effectiveness, in words” value ([3]; DPBS) of the same compound?
The value was “good bactericidal properties”.

And the “antimicrobial effectiveness, in words” value ([3]; mammalian serum)?
The value was “did not demonstrate antimicrobial effectiveness”.

What about the “antimicrobial effectiveness, in words” value [4] of the same compound?
Its value is “effective in mammalian serum”.

What about the LD50 [5] of the same compound?
Its LD50 is about 10.5 µM.
